Target: Mu-type opioid receptor (Homo sapiens, UniProt P35372)
Experiment: biochemical
Type: cell-based, HEK293

Amino acid sequences for entries named in this document (tags omitted).
UniProt P35372, whole entry: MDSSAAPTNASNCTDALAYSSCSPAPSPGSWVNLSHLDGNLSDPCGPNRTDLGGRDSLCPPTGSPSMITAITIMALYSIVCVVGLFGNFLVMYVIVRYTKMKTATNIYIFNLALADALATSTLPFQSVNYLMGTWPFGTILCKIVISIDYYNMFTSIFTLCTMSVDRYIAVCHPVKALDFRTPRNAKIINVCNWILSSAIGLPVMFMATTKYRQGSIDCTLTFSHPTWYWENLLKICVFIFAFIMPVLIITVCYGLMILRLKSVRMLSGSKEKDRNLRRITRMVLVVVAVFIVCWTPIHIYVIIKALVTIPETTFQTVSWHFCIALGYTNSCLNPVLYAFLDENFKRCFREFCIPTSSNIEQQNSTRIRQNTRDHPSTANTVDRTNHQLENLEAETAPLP

Question: How did the IC50 turn out when `CN1CC[C@]23CCCC[C@H]2[C@H]1Cc1ccc(O)cc13` [LEVORPHANOL] was run?
Answer: 130 pM
